Data published in PMC7473772 (eLife, 2020).

Experiments:
[1] = molecular target: T1, aqp1/aqp2/aqp3 null cells expressing TbAQP2-WT (Trypanosoma brucei brucei, UniProt Q6ZXT3); experiment: Inhibition of [3H]-glycerol uptake; type: cell-based; set-up: glycerol uptake: unit not given here; settings: for glycerol uptake: zero inhibitor point 0.002246
T1 sequence (Q6ZXT3 1-312): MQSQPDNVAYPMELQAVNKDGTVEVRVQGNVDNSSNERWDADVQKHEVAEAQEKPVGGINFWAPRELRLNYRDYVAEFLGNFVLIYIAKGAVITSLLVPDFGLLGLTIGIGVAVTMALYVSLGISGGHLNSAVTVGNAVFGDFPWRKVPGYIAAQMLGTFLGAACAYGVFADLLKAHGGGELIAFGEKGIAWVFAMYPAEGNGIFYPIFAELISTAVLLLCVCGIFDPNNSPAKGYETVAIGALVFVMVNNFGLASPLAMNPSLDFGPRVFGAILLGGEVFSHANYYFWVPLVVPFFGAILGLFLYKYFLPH

[2] = molecular target: T1, aqp1/aqp2/aqp3 null cells expressing TbAQP2-WT; experiment: Inhibition of [3H]-pentamidine uptake (dose response); type: cell-based; set-up: unit not given here; settings: zero inhibitor point 0.01011

“carbonyl cyanide m-chlorophenyl hydrazone [CCCP]” gave an IC50 ([1]; […] [3H]-glycerol, 1 min) of 20.7 ± 2.6 µM, a glycerol uptake ([1]; log[inhibitor] -4.00) of 0.000295 and a glycerol uptake ([1]; log[inhibitor] -4.48) of 0.000656. It also gave a glycerol uptake ([1]; log[inhibitor] -5.00) of 0.001512, a glycerol uptake ([1]; log[inhibitor] -5.48) of 0.00208 and a glycerol uptake ([1]; log[inhibitor] -6.00) of 0.002357. It also gave a glycerol uptake ([1]; log[inhibitor] -6.48) of 0.002172, a pentamidine uptake ([2]; log[inhibitor] -4.00) of 0.003012 and a pentamidine uptake ([2]; log[inhibitor] -4.48) of 0.00483. The pentamidine uptake ([2]; log[inhibitor] -5.00) was 0.007941, the pentamidine uptake ([2]; log[inhibitor] -5.48) was 0.01034 and the pentamidine uptake ([2]; log[inhibitor] -6.00) was 0.01003. The pentamidine uptake ([2]; log[inhibitor] -6.48) was 0.0106.
